# In patent US20130004936A1, “SUPERCOOLING PROMOTING AGENT” (National University Corporation Hokkaido Universit, priority 2010, published 2013):
# What was measured:
# Format in all cases: physicochemical
# [1] = test system: dead bacterial cells of an ice nucleation active bacterium (Erwinia ananas); experiment: Supercooling activity (ice nucleus formation inhibitory activity), 2-μL droplets on cooled copper plate, Erwinia ananas as ice nucleus substance; details: 0.1 mass % substance; 2 mg/mL dead E. ananas cells; cooling 0.2° C./min; temperature at which 50% of droplets froze
# Protocol: (§1) In the present invention, a supercooling activity (also referred to as ice nucleus formation inhibitory activity) was measured by the following method. That is, an object to be measured was mixed at […] in a buffer containing an ice nucleus substance to prepare a solution, and many 2-μL liquid droplets of the solution were placed on a copper plate where the temperature could be controlled. The copper plate was cooled at 0.2° C./min, and the number of frozen liquid droplets was visually observed. The temperature at which 50% of the liquid droplets were frozen was defined as a freezing temperature, and a difference between the freezing temperature of the solution including the object to be measured and the ice nucleus substance and the freezing temperature of a solution including only the ice nucleus substance and the buffer (control) (INT50 (° C.)) was defined as a supercooling activity. […]
# The water suspension of the crude extract was centrifuged at 20° C. and 14,000 G, and the supernatant was collected. […] Supercooling activities of the parts were measured by the above-mentioned method. […]
# The fractions K to S obtained above were analyzed by high-performance liquid chromatography (column: PC hydrophilic interaction chromatography column (HILIC), solvent: acetonitrile:water=9:1, flow rate: 1 mL/min, detector: UV 280 nm). […]
# [2] = Supercooling activity, droplets on cooled copper plate, silver iodide as ice nucleus substance; details: 0.1 mass % substance; 10 mM AgI; cooling 0.2° C./min
# Protocol: as §1, with “activity. As the buffer, a 50 mM potassium phosphate buffer (pH 7.0) was used.” for “activity.”
# [3] = test system: dead bacterial cells of an ice nucleation active bacterium Xanthomonas campestris; experiment: Supercooling activity, droplets on cooled copper plate, Xanthomonas campestris as ice nucleus substance; details: 0.1 mass % substance; 2 mg/mL dead X. campestris cells; cooling 0.2° C./min
# Protocol: as §1, with “activity. As the buffer, a 50 mM potassium phosphate buffer (pH 7.0) was used.” for “activity.”
# [4] = Supercooling activity, droplets on cooled copper plate, phloroglucinol as ice nucleus substance; details: 0.1 mass % substance; 120 mM phloroglucinol; cooling 0.2° C./min
# Protocol: as §1, with “activity. As the buffer, a 50 mM potassium phosphate buffer (pH 7.0) was used.” for “activity.”
substance,measurement,setting,value
catechin,freezing temperature (INT50),[1],−5.7 °C
same,freezing temperature (INT50),[2],−4.7 °C
same,freezing temperature (INT50),[3],−8.1 °C
same,freezing temperature (INT50),[4],−8.3 °C
